Experimental data published in patent publication US11857635B2, “Linker compound, polyethylene glycol-linker conjugate and derivative thereof and polyethylene glycol-linker-drug conjugate” (JENKEM TECHNOLOGY CO., LTD. (TIANJIN), priority 2017, dated 2024).

System: melanoma B16
Assay: Tumor inhibitory effect in subcutaneous melanoma B16 model of C57BL/6 mouse
Assay type: in vivo
Details: for Tumor volume: 1 mg/Kg IV, rhIL-2 once a day for 5 days, PEG-rhIL-2 injected once
From the text: PEG and rIL-2 were coupled under the reaction conditions of the reaction group 3 in Example 8. The coupled mixtures were purified by ion exchange chromatography, and a PEG-rIL-2 conjugate was separated for a pharmacodynamic experiment. A subcutaneous melanoma B16 model of a C57BL/6 mouse was used to evaluate a tumor inhibitory effect of an mPEG-L5-rhIL-2 conjugate (hereinafter referred to as PEG-rhIL-2). An experimental process is as follows: 10^6 B16 cells were implanted in a middle of a back of each C57BL/6 mouse of 5 to 6 weeks old. After the tumor grows to a measurable size, the experimental mice were randomly grouped with each group including 6 mice, and test compounds rhIL-2, PEG-rhIL-2 and solvent control were applied to the mice in different dose concentrations and dose schemes. Body weight and tumor volume were measured every other day.

Substance	Increase of anti-tumor effect compared with unmodified rhIL-2 group (9th day of administration)	Tumor volume (day 1)	Tumor volume (day 3)	Tumor volume (day 5)	Tumor volume (day 7)	Tumor volume (day 9)
PEG-rhIL-2	27%	104 mm3	147 mm3	225 mm3	280 mm3	310 mm3
rhIL-2: recombinant human interleukin 2, unmodified		102 mm3	180 mm3	260 mm3	470 mm3	650 mm3
